Here are results for eleven molecules from article PMC7723054.

The list shows a part of the results.

Sequences and labels used below:
T1: LIN28A (human?, UniProt Q9H9Z2 1-209)
T1 sequence: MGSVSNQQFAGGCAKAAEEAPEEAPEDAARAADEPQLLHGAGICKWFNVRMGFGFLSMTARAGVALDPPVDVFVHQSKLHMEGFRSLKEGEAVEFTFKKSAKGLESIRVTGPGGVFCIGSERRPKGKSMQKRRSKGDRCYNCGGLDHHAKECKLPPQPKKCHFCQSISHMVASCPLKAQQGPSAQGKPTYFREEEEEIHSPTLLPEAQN

T2: CIRBP (Homo sapiens, UniProt Q14011 1-172)
T2 sequence: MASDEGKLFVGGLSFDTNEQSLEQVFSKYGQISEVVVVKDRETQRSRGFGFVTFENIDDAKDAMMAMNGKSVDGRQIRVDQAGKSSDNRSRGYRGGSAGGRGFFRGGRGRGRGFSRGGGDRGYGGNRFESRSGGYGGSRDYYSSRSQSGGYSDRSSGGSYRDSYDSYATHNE

T3: DHX36 (Homo sapiens, UniProt Q9H2U1 1-1008)
T3 sequence: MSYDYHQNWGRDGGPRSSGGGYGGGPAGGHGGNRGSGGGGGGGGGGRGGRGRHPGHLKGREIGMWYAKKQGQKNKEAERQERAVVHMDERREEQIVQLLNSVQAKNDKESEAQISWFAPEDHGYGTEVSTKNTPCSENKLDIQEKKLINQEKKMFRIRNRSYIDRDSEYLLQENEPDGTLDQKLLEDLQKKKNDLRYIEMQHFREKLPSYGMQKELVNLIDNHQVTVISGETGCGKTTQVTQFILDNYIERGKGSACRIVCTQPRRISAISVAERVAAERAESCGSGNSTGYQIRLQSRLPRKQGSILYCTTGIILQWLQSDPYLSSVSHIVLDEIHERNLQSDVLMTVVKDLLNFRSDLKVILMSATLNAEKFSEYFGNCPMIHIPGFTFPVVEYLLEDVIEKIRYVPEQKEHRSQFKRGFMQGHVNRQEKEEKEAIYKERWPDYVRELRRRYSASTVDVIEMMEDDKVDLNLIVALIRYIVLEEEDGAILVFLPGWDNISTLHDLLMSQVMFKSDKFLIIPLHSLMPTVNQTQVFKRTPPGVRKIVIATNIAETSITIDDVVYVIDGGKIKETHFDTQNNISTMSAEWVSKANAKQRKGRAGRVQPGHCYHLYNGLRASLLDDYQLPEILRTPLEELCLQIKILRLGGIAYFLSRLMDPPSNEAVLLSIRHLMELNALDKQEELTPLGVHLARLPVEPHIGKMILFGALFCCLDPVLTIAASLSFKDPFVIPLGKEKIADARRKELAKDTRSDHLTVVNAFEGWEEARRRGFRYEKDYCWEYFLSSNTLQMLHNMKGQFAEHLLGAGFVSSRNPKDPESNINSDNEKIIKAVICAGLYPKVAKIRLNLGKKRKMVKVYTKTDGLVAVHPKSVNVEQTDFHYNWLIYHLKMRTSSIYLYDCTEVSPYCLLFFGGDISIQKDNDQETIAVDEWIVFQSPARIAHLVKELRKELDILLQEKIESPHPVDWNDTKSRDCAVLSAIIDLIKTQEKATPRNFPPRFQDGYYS

B1: hsa-mir-24-2 (structured_RNA)
RNA: GGGACGAUGGCUUCCCGGUCCAAUCUUGGGUGUACGAAGUUUCAGCGCUGAAACACAGUUGGUUUGUGUACACUGGCGCUGAAGCUUCGUGCAC
B2: hsa-mir-6803 (structured_RNA)
RNA: GGGACUUGAAUUAUCGGGGCACAUCGCAGGUGUACGAAGUUUCAGCGGGCGUGGUGGACAGCGAUGCAUCCCGCUGAAGCUUCGUGCAC
B3: hsa-mir-4422 (structured_RNA)
RNA: GGGAAUUCGGUGUGAACACUAGCCGCAUGGUGUACGAAGUUUCAGCCCCACCAUGUACCAGUGGGGCUGAAGCUUCGUGCAC
B4: hsa-mir-30d (structured_RNA)
RNA: GGGAAUCGUCUGGGUUCACAGGGAGACGGGUGUACGAAGUUUCAGCGAAGCUGUAAGACACAGCUAAGCUUUGCUGAAGCUUCGUGCAC
B5: hsa-mir-146b (structured_RNA)
RNA: GGGACCUAGUACGGUGAAAUGUGGCGAUGGUGUACGAAGUUUCAGCGGCUGUGAGCUCUAGCAAUGCCCGCUGAAGCUUCGUGCAC
B6: PARIS_ID22 (structured_RNA)
RNA: GGGACACACGGCGUCGAGGACUAAUAUUGGUGUACGAAGUUUCAGCGGCAGUGUCCAGAGGAGGCAGCAUCUGUAGGUGUCUUCACCUGCUCUGGCUCUUGGCACAUCUGGUUGGUGACACUGUUGCUGAAGCUUCGUGCAC
B7: hsa-mir-3136 (structured_RNA)
RNA: GGGACGUUUCUUUACAGGGUACUGGAUAGGUGUACGAAGUUUCAGCGUCAUUUUUCUGUGACUGCACAUGGCGCUGAAGCUUCGUGCAC
B8: hsa-mir-3164 (structured_RNA)
RNA: GGGAAAGUACUUCACUAACGGGAAACACGGUGUACGAAGUUUCAGCGGCGCACAGCAGACCCUGCAAUCAUGCCGCUGAAGCUUCGUGCAC
B9: hsa-mir-4771-2_4771-1 (structured_RNA)
RNA: GGGAAAAGGCCAACGCGCAUUACAGCUAGGUGUACGAAGUUUCAGCUGCUUCAGUUUCACUCCAAGCAGCUGAAGCUUCGUGCAC
B10: hsa-mir-3653 (structured_RNA)
RNA: GGGAACCGCAUGGGGAAGGAUUCAAACAGGUGUACGAAGUUUCAGCCUUCCUGAGCACGCUCAUGAUGAGCAAACUGAGCCUCUAAGGCUGAAGCUUCGUGCAC
B11: PARIS_ID45 (structured_RNA)
RNA: GGGAAGCUGUAAUAAUCUAACGCUAGGCGGUGUACGAAGUUUCAGCGUGAGAUGGGUUGAAAGCACGUGCUGCCAAAAUAGAAUAAUGUUGGUCCUCUCCUCAUGCUGAAGCUUCGUGCAC

The target in one experiment is U1A (Homo sapiens, UniProt P09012). The experiment is described as follows: FOREST: bead pull-down of RNA structure library v1, barcode microarray; U1A/LIN28A: 20 mM HEPES pH 7.5, 80 mM KCl, 20 mM NaCl, 10% glycerol, 2 mM DTT, 0.1 ug/uL BSA, 4 C; BG4/CIRBP/DHX36: 10 mM Tris-HCl pH 7.5, 100 mM KCl (or LiCl),; high values mean tight binding.
In the case of B1, the binding signal came to 1.5 z-score.

B2 displayed a binding signal of 1.48 z-score.

On to B3, for which the binding signal was determined as 1.49 z-score.

B4 displayed a binding signal of 1.48 z-score.

Regarding B5, the binding signal came to 1.5 z-score.

Regarding B6, the binding signal turned out to be 1.49 z-score.

B7 had a binding signal of 2.9 z-score.

Molecule B8 showed a binding signal of 1.52 z-score.

Consider B9, for which the binding signal is 1.52 z-score.

For B10, the binding signal is 1.49 z-score.

On to B11, for which the binding signal was found to be 1.5 z-score.

A further experiment concerns the target T1, LIN28A. Described as above.
For the molecule B1, the binding signal amounted to 0.503 z-score.

B2 yielded a binding signal of 1.69 z-score.

B3: the binding signal was found to be 0.00564 z-score.

Molecule B4 gave a binding signal of 1 z-score.

For B5, the binding signal stood at 0.714 z-score.

B6 displayed a binding signal of 0.839 z-score.

Molecule B7 displayed a binding signal of 0.269 z-score.

Consider B8, for which the binding signal was -0.385 z-score.

In turn, B9 yielded a binding signal of 0.112 z-score.

On to B10, for which the binding signal was -0.282 z-score.

B11 displayed a binding signal of 1.28 z-score.

In the next experiment the target is T2, CIRBP. Described as above.
Molecule B1 displayed a binding signal of -1.1 z-score.

Turning to B2, the binding signal came out at 1.95 z-score.

Consider B3, for which the binding signal was -1.38 z-score.

The molecule B4 registered a binding signal of 0.264 z-score.

B5 registered a binding signal of 0.624 z-score.

The molecule B6 registered a binding signal of 0.154 z-score.

B7 yielded a binding signal of -0.253 z-score.

Consider B8, for which the binding signal was determined as 0.241 z-score.

Take B9: the binding signal is 0.67 z-score.

The molecule B10 registered a binding signal of -0.308 z-score.

The molecule B11 displayed a binding signal of -0.00719 z-score.

Another experiment addresses T3, DHX36. The description is as above.
Turning to B1, the binding signal was -0.385 z-score.

Molecule B2 registered a binding signal of 1.81 z-score.

Turning to B3, the binding signal is -0.884 z-score.

For the molecule B4, the binding signal turned out to be 0.318 z-score.

Molecule B5 gave a binding signal of 0.514 z-score.

For the molecule B6, the binding signal came to 0.227 z-score.

Molecule B7 yielded a binding signal of 0.0433 z-score.

B8 came in with a binding signal of -0.353 z-score.

For the molecule B9, the binding signal came out at 0.876 z-score.

Consider B10, for which the binding signal was 0.193 z-score.

With B11, the binding signal is -0.21 z-score.
